Species: Homo sapiens
Test: Selectivity index, ratio of EC50 for agonist activity at TLR8 (unknown origin) to EC50 for agonist activity at TLR7 (unknown origin)

- Ratio EC50: 50
SMILES: CCCN(CCC)C(=O)C1=Cc2ccc(-c3ccc(C(=O)N4CCCC4)cc3)cc2N=C(N)C1

Reference: ChEMBL document CHEMBL5244202, “Structural evolution of toll-like receptor 7/8 agonists from imidazoquinolines to imidazoles” (RSC Med Chem, 2021)
